## Binding of CDR-mutated scFvs to a peptide of the spike HR2 region

Values reported by Engelhart et al. 2022, doi:10.1038/s41597-022-01779-4 (FLAb copy).

Target peptide (SARS-CoV-2 spike, HR2 region): PDVDLGDISGINAS

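Phage display of a naive human antibody library on the peptide gave the parent. AAYL49 was designed without a model: most single CDR substitutions and a random sample of double and triple ones. The assay is AlphaSeq: two haploid yeast populations carry antibody and antigen on their surface. Pairs that bind mate more often; barcode pairs of the diploids are counted by sequencing. Read counts were normalised to the haploid input and turned into Kd by a linear fit to BCL2-family pairs of known affinity, for each replicate. Mating was done three times.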

The variants keep the light chain, the linker and the frameworks of Ab-14 (scFv order VH, the linker GGGGSGGGGSGGGGS, VL).
VH: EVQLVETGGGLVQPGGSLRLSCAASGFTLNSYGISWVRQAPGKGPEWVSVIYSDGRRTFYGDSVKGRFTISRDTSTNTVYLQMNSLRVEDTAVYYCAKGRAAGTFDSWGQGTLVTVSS
VL: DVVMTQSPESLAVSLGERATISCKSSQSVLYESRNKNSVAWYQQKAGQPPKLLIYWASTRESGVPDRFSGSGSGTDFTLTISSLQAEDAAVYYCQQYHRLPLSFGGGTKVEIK

The parent's heavy chain CDRs are GFTLNSYGIS, VIYSDGRRTFYGDSVK, GRAAGTFDS; each variant's own CDRs replace them letter for letter. Scale: log10 of Kd in nM, estimated from mating counts; low values are strong binders. Where no diploid with the target was found in that replicate, the entry reads "nd": below detection, most likely a poor binder, though not proof of it. Parent in this assay: reference entry 0.65, copy in this library 4.11 (one replicate of three). As a blank, each scFv also met three strains without target: over library AAYL49, 15% of these pairings were detected, typically at 4.06 and seldom below 2.83. The control count says in how many pairings with the empty strains this scFv gave a signal, with their mean in brackets.

| CDR-H1 | CDR-H2 | CDR-H3 | log10 Kd, replicates | signal with controls |
|---|---|---|---|---|
| GFTLNKYGIS | VIYSDIRRTFYGDRVK | GRAAGTFDS | nd nd nd | 0 of 9 |
| GFMLNSYGIS | VIYSDDRRNFYGDSVK | GRAAGTFDS | nd nd nd | 0 of 9 |
| GFTLNSCGIS | VIYYDWRRTFYGDSVK | GRAAGTFDS | 3.49 nd nd | 1 of 9 (3.64) |
| GFTLNSIGIS | VAYSQGRRTFYGDSVK | GRAAGTFDS | nd nd nd | 0 of 9 |
| GFTHNSYGCS | VIYSDGRRTFYGDSVK | GRAAGTFDT | nd nd nd | 1 of 9 (3.45) |
| GFTLNSYGIS | VIYSDGRRPFYGDSVA | GRAARTFDS | nd nd nd | 1 of 9 (3.08) |
| GMTLNIYGIS | VIYSDGRRTFYGDSVK | GHAAGTFDS | 2.61 2.65 2.98 | 3 of 9 (3.55) |
| GFTLNSYGIS | VIYADGERTFYGDSVK | GRAAGTFHS | 3.02 2.20 1.89 | 2 of 9 (2.98) |
| GFTLNSYGIS | VIYSDGRRGFMGDSVK | QRAAGTFDS | nd nd nd | 0 of 9 |
| GFTLNSYGIA | VIYSDGRRVFAGDSVK | GRAAGTFDS | nd 2.93 nd | 0 of 9 |
| GFTCNSYGIS | VIYSDGRRMFYGDSVK | GRAAGAFDS | nd nd nd | 0 of 9 |
| GFTLPSYGIS | VIYSDGRRTFFGDSVK | GRNAGTFDS | 3.00 2.44 2.88 | 1 of 9 (3.94) |
| GHTLTSYGIS | VIYSDSRRTFYGDSVK | GRAAGTFDS | nd nd nd | 2 of 9 (3.95) |
| GFTLNSLGIS | VIYSDGRCTFYGDSVK | GRAAGTVDS | nd nd nd | 2 of 9 (3.90) |
| GFTLNSYGWS | VIYSDGRRTFYGDSVK | GRAAGTFDH | nd nd nd | 0 of 9 |
| NFTLNSYGIS | VIYSDGRRTHAGDSVK | GRAAGTFDS | 4.30 3.35 3.96 | 2 of 9 (4.17) |
| GRTLNSYAIS | VIYSDGRRTFYGDSVK | GRAAGTFDS | nd 2.97 nd | 4 of 9 (3.87) |
| GFMLNSYGLS | VIYSDGRRTFYGDSVK | GRRAGTFDS | nd nd nd | 1 of 9 (3.77) |
| GFTLNSYCIS | VIYRDGRRTFYGDSVK | GRAAGTVDS | nd nd nd | 0 of 9 |
| GFTLNSYGIS | VIYSDGRRTFYGHSVK | GRAAGHFDS | nd nd nd | 0 of 9 |
| GFTLNSYGIS | VIYSDGWRTFYGDSVK | GRAAGTFDG | 1.94 2.35 3.51 | 0 of 9 |
| GFTLNSYGIS | VIYSDGRRTFYGLSVK | GRAAGTFTS | nd 3.48 nd | 1 of 9 (5.09) |
| GFTLNSDGIS | VIYRDGRRTFYGDSVK | GRAAGFFDS | nd nd nd | 1 of 9 (1.83) |
| GFTLNSYGPS | VIYSDGRVTFHGDSVK | GRAAGTFDS | nd nd nd | 0 of 9 |
| GFTLNSYIDS | VIYSDGRGTFYGDSVK | GRAAGTFDS | nd nd nd | 1 of 9 (3.45) |
| GFTLNSYGIS | HIYSDGIRTFYGDSVK | GRAVGTFDS | 3.98 nd 4.38 | 6 of 9 (4.33) |
| IFTLNSYGIA | VPYSDGRRTFYGDSVK | GRAAGTFDS | nd nd nd | 0 of 9 |
| GFTLNSYIIS | VIYSDGHRTFYGDSVK | GRAAGYFDS | 4.62 5.24 nd | 4 of 9 (4.74) |
| GFTLNSYGIS | VIYSDGCRTEYGDSVK | GVAAGTFDS | nd nd 4.85 | 0 of 9 |
| GFRLNSYGIS | VIYSDGRSTFYGDSVK | GRKAGTFDS | nd 3.42 nd | 3 of 9 (4.64) |
| GFTLNSYGTS | VIYSDGRRTFKGDSVK | GRAAETFDS | 4.19 nd nd | 0 of 9 |
| GFTLNSEGIS | VIYSDGRRTFYGDSVK | GLAAKTFDS | 4.60 nd nd | 0 of 9 |
| GFTLNCYGIS | VIRSDGRRTFYGDSVK | GRAAGTFDN | nd nd nd | 4 of 9 (3.91) |
| GFTCNSYGIA | VIYSDGRRTFYGDSVK | GRAAGTFDS | nd nd 5.03 | 3 of 9 (4.46) |
| GETLNSYGIS | VIYSDGLRTFYGDSVK | GRAAGTFES | nd nd 5.27 | 4 of 9 (5.05) |
| GYTLNKYGIS | VIYSDGRRTFYGDSVK | GCAAGTFDS | 4.40 2.13 2.67 | 1 of 9 (3.01) |
| GFTLNSYGIS | VDYSDGEYTFYGDSVK | GRAAGTFDS | nd nd nd | 1 of 9 (5.68) |
| GKTLNSYGIS | VIYSDPRRTFYGDSVK | GEAAGTFDS | nd nd 4.81 | 2 of 9 (4.57) |

A selection of 4 entries from above:

{"CDR-H1": "GFTLNSYIDS", "CDR-H2": "VIYSDGRGTFYGDSVK", "CDR-H3": "GRAAGTFDS", "log10 Kd, replicates": "nd nd nd", "signal with controls": "1 of 9 (3.45)"}
{"CDR-H1": "GMTLNIYGIS", "CDR-H2": "VIYSDGRRTFYGDSVK", "CDR-H3": "GHAAGTFDS", "log10 Kd, replicates": "2.61 2.65 2.98", "signal with controls": "3 of 9 (3.55)"}
{"CDR-H1": "GETLNSYGIS", "CDR-H2": "VIYSDGLRTFYGDSVK", "CDR-H3": "GRAAGTFES", "log10 Kd, replicates": "nd nd 5.27", "signal with controls": "4 of 9 (5.05)"}
{"CDR-H1": "GFRLNSYGIS", "CDR-H2": "VIYSDGRSTFYGDSVK", "CDR-H3": "GRKAGTFDS", "log10 Kd, replicates": "nd 3.42 nd", "signal with controls": "3 of 9 (4.64)"}